Laboratory results: US12606802B2, “Methods and compositions for improving the assembly of adeno-associated viruses (AAVs)” (priority 2019, dated 2026)

Test system: HEK293 cells
Details: 48 h

Substance: apoptazole
- cell morphology (300 uM): clustered together toward the center of the well
- cell morphology (inhibitor 4 h post transfection): drastic changes

Where two headings read alike, the source gives them in different places.
